Apparent affinities of Ab-95 variants for a coronavirus HR2 peptide

Values reported by Engelhart et al. 2022, doi:10.1038/s41597-022-01779-4 (FLAb copy).

Antigen: PDVDLGDISGINAS, a 14-residue peptide of the SARS-CoV-2 spike HR2 region.

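In library AAYL52, one, two or three CDR residues were substituted; doubles and triples were drawn at random. AlphaSeq pools MATa yeast showing the antibodies with MATalpha yeast showing the peptide. Mating (16 h, 30 °C) was followed by selection of diploids and sequencing of their barcodes. The ratio of observed to expected reads was calibrated, replicate by replicate, on BCL2-family standards whose Kd was known from biolayer interferometry. Mating was done three times.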

Each scFv is VH, a (GGGGS)3 linker, VL, as in the parent Ab-95, and differs from it in the CDRs of the light chain only.
VH: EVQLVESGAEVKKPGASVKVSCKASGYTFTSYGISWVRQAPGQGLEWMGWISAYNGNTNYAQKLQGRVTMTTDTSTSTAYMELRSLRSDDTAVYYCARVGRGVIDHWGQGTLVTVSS
VL: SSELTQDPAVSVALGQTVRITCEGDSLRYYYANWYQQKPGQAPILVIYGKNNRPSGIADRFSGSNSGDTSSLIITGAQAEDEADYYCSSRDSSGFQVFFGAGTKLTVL

Positions count from residue 1 of the parent VL; R28T puts T in place of R.
Affinities are written as log10 Kd with Kd in nM; a lower number is a better binder.
A mean of the replicates is given; it leaves out those without a signal.
A pair that was not seen in any replicate is written "nd"; this usually means weak binding, but a binder can also be missed.

| mean, log10 nM | replicates with signal | changes |
|---|---|---|
| 4.86 | 1 of 3 | R28T+A32L+P54F |
| nd | 0 of 3 | E23R+A32E+S89F |
| 3.92 | 3 of 3 | N51Y+S55E+S89D |
| 3.40 | 3 of 3 | S55R+D91H+G94F |
| 4.74 | 1 of 3 | Y31T+S55Q+R90W |
| 3.35 | 1 of 3 | G24N+Y31K+N33K |
| 3.53 | 1 of 3 | G24I+S26V+P54D |
| nd | 0 of 3 | L27W+K50V+D91Q |
| 3.74 | 1 of 3 | G24D+D25H+Y31V |
| 2.70 | 3 of 3 | E23G+Y30F+Q96V |
| nd | 0 of 3 | Y29K+G94M+V97R |
| 4.49 | 3 of 3 | G24L+G49R+S92V |
| nd | 0 of 3 | E23Y+S89H+S92H |
| 3.58 | 2 of 3 | E23V+N33R+F98G |
| 2.90 | 3 of 3 | G24P+R28N+Y31G |
| 2.34 | 3 of 3 | S92T+G94I+Q96N |
| 3.93 | 2 of 3 | R28F+A32S+K50W |
| 3.92 | 2 of 3 | L27N+S55F |
| 0.88 | 3 of 3 | Y31D+P54C+S55E |
| 3.19 | 3 of 3 | L27N+Y31M+R90F |
| 3.67 | 3 of 3 | E23G+S26W+N51G |
| 4.12 | 3 of 3 | N51F+S55P+V97C |
| nd | 0 of 3 | Y30P+N33M+R90S |
| 3.90 | 1 of 3 | S26Q+K50Y+D91T |
| 4.99 | 2 of 3 | G24Q+Y29H+G49I |
| 3.55 | 3 of 3 | N51E+S93H+G94Q |
| 4.11 | 3 of 3 | Y30F+S88G+F95N |
| 3.12 | 3 of 3 | R28A+R53T+S89E |
| 4.21 | 1 of 3 | K50C+S89N+G94I |
| 3.14 | 3 of 3 | P54W+S92P+F95S |
| nd | 0 of 3 | G24L+N51Q+F95N |
| 2.20 | 3 of 3 | S88I+G94C+F98A |
| 3.38 | 1 of 3 | S26N+F95R+V97R |
| 2.89 | 3 of 3 | N52V+S55A+F98Q |
| 3.25 | 3 of 3 | Y31K+N52T+S93E |
| nd | 0 of 3 | D25Q+G49R+S89K |
| 2.46 | 3 of 3 | Y30R+A32G+V97K |
| 4.08 | 1 of 3 | K50D+S88D+F95G |
| 4.04 | 2 of 3 | S55Q+S88K+D91F |
| nd | 0 of 3 | N52Q+S89Q+V97P |
| 5.01 | 2 of 3 | L27Q+D91L+F95H |
| 3.51 | 3 of 3 | N33D+S93P+F95E |
| 1.72 | 3 of 3 | K50D+S92M+S93T |
| 4.06 | 1 of 3 | D25N+Y29Q+A32W |
| 4.42 | 2 of 3 | L27K+Y31L+P54G |
| 3.49 | 3 of 3 | A32S+N52V+P54T |
| 3.60 | 3 of 3 | N52H+S55Y+R90V |
| 3.59 | 2 of 3 | G24R+F95Y+Q96S |
| 3.66 | 1 of 3 | N33Q+S55Y+V97G |

The first 8 variants above that were never detected:

changes,"mean, log10 nM",replicates with signal
E23R+A32E+S89F,nd,0 of 3
L27W+K50V+D91Q,nd,0 of 3
Y29K+G94M+V97R,nd,0 of 3
E23Y+S89H+S92H,nd,0 of 3
Y30P+N33M+R90S,nd,0 of 3
G24L+N51Q+F95N,nd,0 of 3
D25Q+G49R+S89K,nd,0 of 3
N52Q+S89Q+V97P,nd,0 of 3

Background: pairings of library AAYL52 with three empty control strains gave a value in 28% of cases (median 3.91, 5th percentile 2.90). Values in that range, when seen in few replicates, are hard to tell from nonspecific mating.